In US9950026B2, “Methods for reducing oxidative damage” (Cornell Research Foundation, Inc., priority 2004, dated 2018):

What was measured:
[1] = Linoleic acid peroxidation induced by ABAP (conjugated dienes); conditions: peptides 100 μM
[2] = system: Human LDL (low density lipoprotein); assay: LDL oxidation induced by CuSO4 (conjugated dienes); assay type: biochemical; conditions: peptides 100 μM
Procedure: Human LDL (low density lipoprotein) was prepared fresh from stored plasma. LDL oxidation was induced catalytically by the addition of […] CuSO4, and the formation of conjugated dienes was monitored at […] for 5 h at 37° C. (B. Moosmann and C. Behl, Mol Pharmacol., 61, 260-268 (2002)).

| Substance | rate of linoleic acid peroxidation (slope of diene formation) [1] | rate of LDL oxidation (rate of formation of conjugated dienes) [2] |
| --- | --- | --- |
| A[dR]FK-NH2 [SS-22] | With the exception of | – |
| Cyclohexyl-D-Arg-Phe-Lys-NH2 [SS-21] | With the exception of | – |
| Dmt-D-Arg-Phe-Ahp(2-aminoheptanoic acid)-NH2 [SS-32] | reduced the rate of linoleic acid peroxidation | reduced rate of LDL oxidation |

Where no end group is shown, it is not given here. [ ]: non-standard residue; d: D form.
